The numbers were not newly measured in article PMC7160673, “A Degenerate Peptide Library Approach to Reveal Sequence Determinants of Methyllysine-Driven Protein Interactions” (Frontiers in Cell and Developmental Biology, 2020), which cites them from elsewhere.

By UniProt entry, the sequences of proteins in these tests, tags left out. Residues count along the entry.
UniProt Q99549, 56-121: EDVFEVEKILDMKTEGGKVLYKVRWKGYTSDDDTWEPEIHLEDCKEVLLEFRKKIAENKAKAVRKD

The data set concerns the target histone H3K9me3 peptide 1-20 (Homo sapiens) (UniProt P68431). The following applies: cited from earlier work.

One may read the Kd as a measure of binding affinity in units of concentration. In the case of MPP8 chromodomain (from UniProt Q99549), the Kd was 230 nM.
